We go through 1 compound from ChEMBL document CHEMBL6153133, “Discovery of Diphenyl Ether Derivatives as Novel BKCa Channel Activators: Structure-Activity Relationship, Cryo-EM Complex Structures, and In Vivo Animal Studies” (J Med Chem, 2025).

The chains behind the UniProt entries cited, without tags or fusion partners.
Calcium-activated potassium channel subunit alpha-1 (Homo sapiens), Q12791, UniProt Q12791, whole entry, looked up, stated change not applied: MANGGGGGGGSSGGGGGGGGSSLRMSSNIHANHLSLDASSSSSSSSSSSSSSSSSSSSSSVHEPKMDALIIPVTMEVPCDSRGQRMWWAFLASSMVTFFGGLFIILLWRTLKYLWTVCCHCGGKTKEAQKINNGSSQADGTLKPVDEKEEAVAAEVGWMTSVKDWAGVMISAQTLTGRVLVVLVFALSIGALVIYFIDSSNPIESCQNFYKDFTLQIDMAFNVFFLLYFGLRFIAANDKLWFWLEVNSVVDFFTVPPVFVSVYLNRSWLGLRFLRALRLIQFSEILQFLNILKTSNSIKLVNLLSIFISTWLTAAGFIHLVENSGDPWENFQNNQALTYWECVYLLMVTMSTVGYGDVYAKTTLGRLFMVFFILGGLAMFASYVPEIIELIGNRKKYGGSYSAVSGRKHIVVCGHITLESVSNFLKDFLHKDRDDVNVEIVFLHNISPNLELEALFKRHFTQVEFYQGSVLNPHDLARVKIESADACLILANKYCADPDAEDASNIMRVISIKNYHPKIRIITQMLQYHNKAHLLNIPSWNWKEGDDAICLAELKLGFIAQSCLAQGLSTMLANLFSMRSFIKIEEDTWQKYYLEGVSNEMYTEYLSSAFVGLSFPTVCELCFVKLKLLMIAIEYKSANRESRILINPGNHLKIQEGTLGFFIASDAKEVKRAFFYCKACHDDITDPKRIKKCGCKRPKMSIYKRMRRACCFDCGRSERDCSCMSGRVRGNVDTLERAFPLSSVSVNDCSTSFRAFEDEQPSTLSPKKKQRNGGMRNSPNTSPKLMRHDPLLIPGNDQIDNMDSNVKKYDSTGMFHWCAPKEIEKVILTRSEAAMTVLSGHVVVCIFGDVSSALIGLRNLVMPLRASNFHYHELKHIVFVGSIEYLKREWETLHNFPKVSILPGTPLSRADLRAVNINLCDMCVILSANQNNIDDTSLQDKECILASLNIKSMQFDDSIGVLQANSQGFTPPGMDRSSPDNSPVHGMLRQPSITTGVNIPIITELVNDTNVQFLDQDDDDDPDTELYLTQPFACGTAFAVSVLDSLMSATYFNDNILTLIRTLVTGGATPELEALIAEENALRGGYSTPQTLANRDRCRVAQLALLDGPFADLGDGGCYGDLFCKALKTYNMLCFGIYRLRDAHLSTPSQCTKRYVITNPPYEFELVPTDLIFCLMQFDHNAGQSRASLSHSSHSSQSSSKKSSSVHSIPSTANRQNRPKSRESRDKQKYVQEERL

The structures appear in SMILES notation.

Type in all cases: cell-based
Common to all, as to settings: filed as opener, time 980.0 sec

Assay [1] concerns Calcium-activated potassium channel subunit alpha-1 (Homo sapiens), Q12791 [UNDEFINED MUTATION]. Put plainly: Activation of hyperactive human BKca channel G803D/N806K mutant transfected in human AD-293 cells assessed as fold change in maximum relative fluorescence value at 0.05 uM preincubated for 15 mins followed by Tl+ stimulus buffer addition and measured after 80 sec by Flexstation3 multimode microplate reader analysis.

The test system is the same in assay [2]. Kind of assay: Activation of hyperactive human BKca channel G803D/N806K mutant transfected in human AD-293 cells assessed as fold change in maximum relative fluorescence value at 0.1 uM preincubated for 15 mins followed by Tl+ stimulus buffer addition and measured after 80 sec by Flexstation3 multimode microplate reader analysis.
For assay [3] the test system is unchanged. Kind of assay: Activation of hyperactive human BKca channel G803D/N806K mutant transfected in human AD-293 cells assessed as fold change in maximum relative fluorescence value at 0.3 uM preincubated for 15 mins followed by Tl+ stimulus buffer addition and measured after 80 sec by Flexstation3 multimode microplate reader analysis.
The test system is the same in assay [4]. Put plainly: Activation of hyperactive human BKca channel G803D/N806K mutant transfected in human AD-293 cells assessed as fold change in maximum relative fluorescence value at 0.5 uM preincubated for 15 mins followed by Tl+ stimulus buffer addition and measured after 80 sec by Flexstation3 multimode microplate reader analysis.
Assay [5] has the same test system. Kind of assay: Activation of hyperactive human BKca channel G803D/N806K mutant transfected in human AD-293 cells assessed as fold change in maximum relative fluorescence value at 1 uM preincubated for 15 mins followed by Tl+ stimulus buffer addition and measured after 80 sec by Flexstation3 multimode microplate reader analysis.
Assay [6] has the same test system. Kind of assay: Activation of hyperactive human BKca channel G803D/N806K mutant transfected in human AD-293 cells assessed as fold change in maximum relative fluorescence value at 3 uM preincubated for 15 mins followed by Tl+ stimulus buffer addition and measured after 80 sec by Flexstation3 multimode microplate reader analysis.

On to `Nc1ccc(Oc2c(F)c(F)c(C(F)(F)F)c(F)c2F)c(O)c1`, for which the fold change (FC) in assay [1] was 2.1; in assay [2], 3.6; in assay [3] it was 8.1; in assay [4] it was 9.3; in assay [5] it was 9.6; in assay [6], 9.2.
